{"source": "patent US20230227514A1", "about": "“BETA-ARRESTIN COMPOSITIONS AND ASSOCIATED METHODS” (Duke University, priority 2020, published 2023)", "molecular_target": "T1, V2R (Homo sapiens, UniProt P30518)", "T1 construct": "HA (N); expressed in transfected cells", "experiment": "Co-immunoprecipitation of βarrestin2 constructs with HA-V2R", "assay_type": "binding", "conditions": "HEK-293 cells stably expressing HA-V2R; AVP", "data": [{"substance": "βarrestin2: wild-type rat βarrestin2 (SEQ ID NO:3), tagged, used as comparator [reference compound]", "values": [{"measurement": "binding with agonist activated V2Rs by co-immunoprecipitation", "value": "equivalent binding"}]}]}
